Source: US20140100156A1 (SANOFI, priority 2012, published 2014)
Read-outs that look alike come from different tables or passages of the source.

Sequences of proteins named here, by UniProt entry; tags and fusion partners are left off. Residues count along the entry.
UniProt P43220, 24-463: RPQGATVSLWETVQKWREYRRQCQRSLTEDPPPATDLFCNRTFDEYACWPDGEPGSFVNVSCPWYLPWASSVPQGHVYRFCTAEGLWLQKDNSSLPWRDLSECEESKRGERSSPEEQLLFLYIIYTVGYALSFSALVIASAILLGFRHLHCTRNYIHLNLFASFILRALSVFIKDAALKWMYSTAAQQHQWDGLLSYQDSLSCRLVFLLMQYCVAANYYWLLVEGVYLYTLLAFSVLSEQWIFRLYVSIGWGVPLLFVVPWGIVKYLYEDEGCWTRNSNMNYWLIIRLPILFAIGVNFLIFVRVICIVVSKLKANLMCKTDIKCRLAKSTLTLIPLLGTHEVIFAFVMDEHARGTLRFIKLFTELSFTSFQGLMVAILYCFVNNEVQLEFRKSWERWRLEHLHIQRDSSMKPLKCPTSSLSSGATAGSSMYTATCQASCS
UniProt P47871, 26-477: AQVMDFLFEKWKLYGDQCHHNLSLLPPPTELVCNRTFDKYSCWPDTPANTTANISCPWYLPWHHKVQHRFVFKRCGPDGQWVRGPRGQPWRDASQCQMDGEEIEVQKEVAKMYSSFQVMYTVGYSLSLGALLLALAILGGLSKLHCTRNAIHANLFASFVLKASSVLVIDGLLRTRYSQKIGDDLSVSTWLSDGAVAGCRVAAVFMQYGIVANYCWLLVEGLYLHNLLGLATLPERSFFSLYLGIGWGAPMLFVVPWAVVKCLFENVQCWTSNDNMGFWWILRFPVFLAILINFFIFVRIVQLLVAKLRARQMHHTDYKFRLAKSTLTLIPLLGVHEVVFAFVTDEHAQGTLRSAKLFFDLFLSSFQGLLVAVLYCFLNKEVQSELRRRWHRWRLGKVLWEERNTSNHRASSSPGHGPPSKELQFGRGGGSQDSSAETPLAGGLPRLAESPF

Assays:
human GLP-1 receptor = biological target: T1, human GLP-1 receptor (Homo sapiens, UniProt P43220); assay: cAMP response (HTRF) of HEK-293 cells stably expressing human GLP-1 receptor; assay type: cell-based; conditions: Table 5, cAMP, HEK-293
T1 construct: expressed in transfected cells; host or cells: HEK-293

human glucagon receptor = biological target: T2, human glucagon receptor (Homo sapiens, UniProt P47871); assay: cAMP response (HTRF) of HEK-293 cells stably expressing human glucagon receptor; assay type: cell-based
T2 construct: expressed in transfected cells; host or cells: HEK-293

[1] = Table 5, cAMP, HEK-293, read-out: EC50 hGlucagon-R

EC50 (human glucagon receptor; Table 8, comparison testing of position 14, read-out: EC50 hGlucagon-R) [nM]	Structure (SMILES)	EC50 (human GLP-1 receptor; read-out: EC50 hGLP-1R) [nM]	EC50 (human glucagon receptor; [1]) [nM]	EC50 (human GLP-1 receptor; EC50 hGLP-1R) [nM]	EC50 (human glucagon receptor; EC50 hGlucagon-R, Table 5, cAMP, HEK-293) [nM]
–	CCCCCCCCCCCCCCCC(=O)N[C@@H](CCC(=O)NCCCC[C@H](NC(=O)[C@H](CO)NC(=O)[C@@H]1CCCN1C(=O)[C@@H]1CCCN1C(=O)[C@@H]1CCCN1C(=O)[C@H](C)NC(=O)CNC(=O)[C@H](CO)NC(=O)[C@H](CO)NC(=O)[C@@H]1CCCN1C(=O)CNC(=O)CNC(=O)[C@H](C)NC(=O)[C@H](CCCCN)NC(=O)[C@H](CC(C)C)NC(=O)[C@H](Cc1c[nH]c2ccccc12)NC(=O)[C@H](CCC(=O)O)NC(=O)[C@@H](NC(=O)[C@H](Cc1ccccc1)NC(=O)[C@H](CC(C)C)NC(=O)[C@H](CCC(N)=O)NC(=O)[C@H](C)NC(=O)[C@H](CCCNC(=N)N)NC(=O)[C@H](CCCNC(=N)N)NC(=O)[C@H](CO)NC(=O)[C@H](CCC(=O)O)NC(=O)[C@H](CCCCNC(=O)CC[C@H](NC(=O)CCCCCCCCCCCCCCC)C(=O)O)NC(=O)[C@H](CCC(N)=O)NC(=O)[C@H](CCCCN)NC(=O)[C@H](CO)NC(=O)[C@H](CC(C)C)NC(=O)[C@H](CC(=O)O)NC(=O)[C@H](CO)NC(=O)[C@@H](NC(=O)[C@H](Cc1ccccc1)NC(=O)[C@@H](NC(=O)CNC(=O)[C@H](CCC(N)=O)NC(=O)[C@@H](CO)NC(=O)[C@@H](N)Cc1c[nH]cn1)[C@@H](C)O)[C@@H](C)O)[C@@H](C)CC)C(N)=O)C(=O)O [compound 6]	0.141	0.0189	–	–
–	CCCCCCCCCCCCCCCC(=O)NCCCC(=O)NCCCC[C@H](NC(=O)[C@H](CCC(N)=O)NC(=O)[C@H](CCCCN)NC(=O)[C@H](CO)NC(=O)[C@H](CC(C)C)NC(=O)[C@H](CC(=O)O)NC(=O)[C@H](CO)NC(=O)[C@@H](NC(=O)[C@H](Cc1ccccc1)NC(=O)[C@@H](NC(=O)CNC(=O)[C@H](CCC(N)=O)NC(=O)[C@@H](CO)NC(=O)[C@@H](N)Cc1c[nH]cn1)[C@@H](C)O)[C@@H](C)O)C(=O)N[C@@H](CCC(=O)O)C(=O)N[C@@H](CO)C(=O)N[C@@H](CCCCN)C(=O)N[C@@H](C)C(=O)N[C@@H](C)C(=O)N[C@@H](CCC(N)=O)C(=O)N[C@@H](CC(=O)O)C(=O)N[C@@H](Cc1ccccc1)C(=O)N[C@H](C(=O)N[C@@H](CCC(=O)O)C(=O)N[C@@H](Cc1c[nH]c2ccccc12)C(=O)N[C@@H](CC(C)C)C(=O)N[C@@H](CCCCN)C(=O)N[C@@H](C)C(=O)NCC(=O)NCC(=O)N1CCC[C@H]1C(=O)N[C@@H](CO)C(=O)N[C@@H](CO)C(=O)NCC(=O)N[C@@H](C)C(=O)N1CCC[C@H]1C(=O)N1CCC[C@H]1C(=O)N1CCC[C@H]1C(=O)N[C@@H](CO)C(N)=O)[C@@H](C)CC [compound 7]	0.0035	0.0207	–	–
–	CCCCCCCCCCCCOc1ccc(C(=O)N[C@@H](CCC(=O)NCCCC[C@H](NC(=O)[C@H](CCC(N)=O)NC(=O)[C@H](CCCCN)NC(=O)[C@H](CO)NC(=O)[C@H](CC(C)C)NC(=O)[C@H](CC(=O)O)NC(=O)[C@H](CO)NC(=O)[C@@H](NC(=O)[C@H](Cc2ccccc2)NC(=O)[C@@H](NC(=O)CNC(=O)[C@H](CCC(N)=O)NC(=O)[C@@H](CO)NC(=O)[C@@H](N)Cc2c[nH]cn2)[C@@H](C)O)[C@@H](C)O)C(=O)N[C@@H](CCC(=O)O)C(=O)N[C@@H](CO)C(=O)N[C@@H](CCCNC(=N)N)C(=O)N[C@@H](C)C(=O)N[C@@H](C)C(=O)N[C@@H](CCC(N)=O)C(=O)N[C@@H](CC(=O)O)C(=O)N[C@@H](Cc2ccccc2)C(=O)N[C@H](C(=O)N[C@@H](CCC(=O)O)C(=O)N[C@@H](Cc2c[nH]c3ccccc23)C(=O)N[C@@H](CC(C)C)C(=O)N[C@@H](CCCCN)C(=O)N[C@@H](C)C(=O)NCC(=O)NCC(=O)N2CCC[C@H]2C(=O)N[C@@H](CO)C(=O)N[C@@H](CO)C(=O)NCC(=O)N[C@@H](C)C(=O)N2CCC[C@H]2C(=O)N2CCC[C@H]2C(=O)N2CCC[C@H]2C(=O)N[C@@H](CO)C(N)=O)[C@@H](C)CC)C(=O)O)cc1 [compound 9]	–	–	0.0022	0.0041
–	CCCCCCCCCCCCCCCC(=O)N[C@@H](CCC(=O)NCCCC[C@H](NC(=O)[C@H](CCC(N)=O)NC(=O)[C@H](CCCCN)NC(=O)[C@H](CO)NC(=O)[C@H](CC(C)C)NC(=O)[C@H](CC(=O)O)NC(=O)[C@H](CO)NC(=O)[C@@H](NC(=O)[C@H](Cc1ccccc1)NC(=O)[C@@H](NC(=O)CNC(=O)[C@H](CCC(N)=O)NC(=O)[C@@H](CO)NC(=O)[C@@H](N)Cc1c[nH]cn1)[C@@H](C)O)[C@@H](C)O)C(=O)N[C@@H](CC(=O)O)C(=O)N[C@@H](CO)C(=O)N[C@@H](CCCNC(=N)N)C(=O)N[C@@H](CCCNC(=N)N)C(=O)N[C@@H](C)C(=O)N[C@@H](CCC(N)=O)C(=O)N[C@@H](CC(=O)O)C(=O)N[C@@H](Cc1ccccc1)C(=O)N[C@H](C(=O)N[C@@H](CCC(=O)O)C(=O)N[C@@H](Cc1c[nH]c2ccccc12)C(=O)N[C@@H](CC(C)C)C(=O)N[C@@H](CCCCN)C(=O)N[C@@H](CC(N)=O)C(=O)NCC(=O)NCC(=O)N1CCC[C@H]1C(=O)N[C@@H](CO)C(=O)N[C@@H](CO)C(=O)NCC(=O)N[C@@H](C)C(=O)N1CCC[C@H]1C(=O)N1CCC[C@H]1C(=O)N1CCC[C@H]1C(=O)N[C@@H](CO)C(=O)NCCC)[C@@H](C)CC)C(=O)O [compound 10]	0.0092	0.0017	–	–
–	CCCCCCCCCCCCCCCCCC(=O)N[C@@H](CCC(=O)NCCCC[C@H](NC(=O)[C@H](CCC(N)=O)NC(=O)[C@H](CCCCN)NC(=O)[C@H](CO)NC(=O)[C@H](CC(C)C)NC(=O)[C@H](CC(=O)O)NC(=O)[C@H](CO)NC(=O)[C@@H](NC(=O)[C@H](Cc1ccccc1)NC(=O)[C@@H](NC(=O)CNC(=O)[C@H](CCC(N)=O)NC(=O)[C@@H](CO)NC(=O)[C@@H](N)Cc1c[nH]cn1)[C@@H](C)O)[C@@H](C)O)C(=O)N[C@@H](CCC(=O)O)C(=O)N[C@@H](CO)C(=O)NC(C)(C)C(=O)N[C@@H](C)C(=O)N[C@@H](C)C(=O)N[C@@H](CCC(N)=O)C(=O)N[C@@H](CC(=O)O)C(=O)N[C@@H](Cc1ccccc1)C(=O)N[C@H](C(=O)N[C@@H](CCC(=O)O)C(=O)N[C@@H](Cc1c[nH]c2ccccc12)C(=O)N[C@@H](CC(C)C)C(=O)N[C@@H](CCCCN)C(=O)N[C@@H](C)C(=O)NCC(=O)NCC(=O)N1CCC[C@H]1C(=O)N[C@@H](CO)C(=O)N[C@@H](CO)C(=O)NCC(=O)N[C@@H](C)C(=O)N1CCC[C@H]1C(=O)N1CCC[C@H]1C(=O)N1CCC[C@H]1C(=O)N[C@@H](CO)C(N)=O)[C@@H](C)CC)C(=O)O [compound 11]	0.0036	0.0257	–	–
–	CCCCCCCCCCCCCCCC(=O)N[C@@H](CCC(=O)NCCCC[C@H](NC(=O)[C@H](CCC(N)=O)NC(=O)[C@H](CCCCN)NC(=O)[C@H](CO)NC(=O)[C@H](CC(C)C)NC(=O)[C@H](CC(=O)O)NC(=O)[C@H](CO)NC(=O)[C@@H](NC(=O)[C@H](Cc1ccccc1)NC(=O)[C@@H](NC(=O)CNC(=O)[C@H](CCC(N)=O)NC(=O)[C@@H](CO)NC(=O)[C@@H](N)Cc1c[nH]cn1)[C@@H](C)O)[C@@H](C)O)C(=O)N[C@@H](CCC(=O)O)C(=O)N[C@@H](CO)C(=O)NC(C)(C)C(=O)N[C@@H](C)C(=O)N[C@@H](C)C(=O)NC(C)(C)C(=O)N[C@@H](CC(C)C)C(=O)N[C@@H](Cc1ccccc1)C(=O)N[C@H](C(=O)N[C@@H](CCC(=O)O)C(=O)N[C@@H](Cc1c[nH]c2ccccc12)C(=O)N[C@@H](CC(C)C)C(=O)N[C@@H](CCCCN)C(=O)N[C@@H](C)C(=O)NCC(=O)NCC(=O)N1CCC[C@H]1C(=O)N[C@@H](CO)C(=O)N[C@@H](CO)C(=O)NCC(=O)N[C@@H](C)C(=O)N1CCC[C@H]1C(=O)N1CCC[C@H]1C(=O)N1CCC[C@H]1C(=O)N[C@@H](CO)C(N)=O)[C@@H](C)CC)C(=O)O [compound 12]	0.0046	0.263	–	–
–	CCCCCCCCCCCCCCCCCC(=O)N[C@@H](CCC(=O)NCCCC[C@H](NC(=O)[C@H](CCC(N)=O)NC(=O)[C@H](CCCCN)NC(=O)[C@H](CO)NC(=O)[C@H](CC(C)C)NC(=O)[C@H](CC(=O)O)NC(=O)[C@H](CO)NC(=O)[C@@H](NC(=O)[C@H](Cc1ccccc1)NC(=O)[C@@H](NC(=O)CNC(=O)[C@H](CCC(N)=O)NC(=O)[C@@H](CO)NC(=O)[C@@H](N)Cc1c[nH]cn1)[C@@H](C)O)[C@@H](C)O)C(=O)N[C@@H](CCC(=O)O)C(=O)N[C@@H](CO)C(=O)N[C@@H](CCCCN)C(=O)N[C@@H](C)C(=O)N[C@@H](C)C(=O)N[C@@H](CCC(N)=O)C(=O)N[C@@H](CC(C)C)C(=O)N[C@@H](Cc1ccccc1)C(=O)N[C@H](C(=O)N[C@@H](CCC(=O)O)C(=O)N[C@@H](Cc1c[nH]c2ccccc12)C(=O)N[C@@H](CC(C)C)C(=O)N[C@@H](CCCCN)C(=O)N[C@@H](C)C(=O)NCC(=O)NCC(=O)N1CCC[C@H]1C(=O)N[C@@H](CO)C(=O)N[C@@H](CO)C(=O)NCC(=O)N[C@@H](C)C(=O)N1CCC[C@H]1C(=O)N1CCC[C@H]1C(=O)N1CCC[C@H]1C(=O)N[C@@H](CO)C(N)=O)[C@@H](C)CC)C(=O)O [compound 27]	–	0.0251	–	–
2.87	CC[C@H](C)[C@H](NC(=O)[C@H](Cc1ccccc1)NC(=O)[C@H](CC(C)C)NC(=O)[C@H](CCCNC(=N)N)NC(=O)[C@H](C)NC(=O)[C@H](C)NC(=O)[C@H](CCC(=O)O)NC(=O)[C@H](CCC(=O)O)NC(=O)[C@H](CCC(=O)O)NC(=O)[C@H](CC(C)C)NC(=O)[C@H](CCC(N)=O)NC(=O)[C@H](CCCCN)NC(=O)[C@H](CO)NC(=O)[C@H](CC(C)C)NC(=O)[C@H](CC(=O)O)NC(=O)[C@H](CO)NC(=O)[C@@H](NC(=O)[C@H](Cc1ccccc1)NC(=O)[C@@H](NC(=O)CNC(=O)[C@H](CCC(N)=O)NC(=O)C(C)(C)NC(=O)[C@@H](N)Cc1c[nH]cn1)[C@@H](C)O)[C@@H](C)O)C(=O)N[C@@H](CCC(=O)O)C(=O)N[C@@H](Cc1c[nH]c2ccccc12)C(=O)N[C@@H](CC(C)C)C(=O)N[C@@H](CCCCN)C(=O)N[C@@H](C)C(=O)NCC(=O)NCC(=O)N1CCC[C@H]1C(=O)N[C@@H](CO)C(=O)N[C@@H](CO)C(=O)NCC(=O)N[C@@H](C)C(=O)N1CCC[C@H]1C(=O)N1CCC[C@H]1C(=O)N1CCC[C@H]1C(=O)N[C@@H](CO)C(N)=O [compound 225]	–	–	–	–
